Laboratory results taken from paper PMC6005765 (Bioorganic & medicinal chemistry letters, 2018).

Amino acid sequences for entries named in this document (tags omitted).
UniProt P35372, whole entry: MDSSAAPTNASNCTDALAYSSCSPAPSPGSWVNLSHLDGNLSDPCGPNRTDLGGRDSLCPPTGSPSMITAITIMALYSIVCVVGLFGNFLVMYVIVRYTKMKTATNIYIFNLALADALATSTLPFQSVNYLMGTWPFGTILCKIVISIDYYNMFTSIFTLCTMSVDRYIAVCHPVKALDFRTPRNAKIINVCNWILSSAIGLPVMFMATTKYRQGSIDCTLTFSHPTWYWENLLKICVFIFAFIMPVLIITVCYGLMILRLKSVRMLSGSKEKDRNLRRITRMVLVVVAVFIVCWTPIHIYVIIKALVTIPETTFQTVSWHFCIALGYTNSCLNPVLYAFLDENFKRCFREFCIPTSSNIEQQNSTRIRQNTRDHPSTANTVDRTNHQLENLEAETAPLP

Target: μ opioid receptor (UniProt P35372)
Assay: radioligand binding

Deltorphin II (peptide) showed an IC50 of 627 nM.
